# Ab-14 heavy chain CDR variants: yeast mating affinities

The target is the same throughout: PDVDLGDISGINAS, from the HR2 region of SARS-CoV-2 spike.

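Phage display of a naive human antibody library on the peptide gave the parent. These sequences belong to a second round, designed from the earlier measurements on random variants of the parent. Several design methods are mixed in this list. AlphaSeq pools MATa yeast showing the antibodies with MATalpha yeast showing the peptide. Pairs that bind mate more often; barcode pairs of the diploids are counted by sequencing. A regression on co-assayed BCL2-family reference pairs converts the normalised counts of each replicate to an apparent Kd. Each pool was mated in six replicate cultures.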

Ab-14 is the parent antibody, in scFv form: VH, then the linker GGGGSGGGGSGGGGS, then VL. The light chain is unchanged in all variants.
VH: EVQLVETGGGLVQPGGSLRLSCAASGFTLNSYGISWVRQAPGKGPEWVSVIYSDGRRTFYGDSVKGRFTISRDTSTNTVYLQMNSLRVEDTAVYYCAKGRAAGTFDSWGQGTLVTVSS
VL: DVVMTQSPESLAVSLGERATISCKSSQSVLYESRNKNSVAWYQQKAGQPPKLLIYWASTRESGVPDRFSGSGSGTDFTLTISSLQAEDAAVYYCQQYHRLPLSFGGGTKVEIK

Variants are written as CDR1, CDR2 and CDR3 of the heavy chain (limits as in the source). Parent: GFTLNSYGIS, VIYSDGRRTFYGDSVK, GRAAGTFDS.
Numbers give log10(Kd / nM), so 0 is 1 nM and 3 is 1 µM. Smaller is tighter.
Replicates are averaged; those with no signal do not enter the mean.
A pair that was not seen in that replicate is written "nd"; this usually means weak binding, but a binder can also be missed.
The authors averaged sequences with at least three values out of six and counted those with two or fewer as poor binders.
The range of this assay differs from that of the first round, and the authors advise against merging the two.
Of ten entries with the parent sequence, four were seen in most replicates (averages 0.34 to 2.37), three in one and three in none, so single entries are noisy.
Nonspecific signal, from three strains lacking the peptide, appeared in 1% of pairings of all heavy chain designs, centred on 2.08 (5% of these signals below 0.84); values are not corrected for it.

Variant HFDLNSYGIS, VIYSDGRRTFYIDSVK, GRQAGTFDS gave nd, 2.24, 1.14, 1.32, 2.36, 1.08 (mean 1.63).
Variant GFNLDDMGIS, VIYADGERTAYSDSVK, GHEGYIMNV gave nd, nd, nd, nd, nd, nd.
Variant GFTLASYGIS, VIYSDGRRTQYGDSVK, GRLAFTFDS gave nd, nd, nd, nd, nd, nd.
Variant GFTLNSYGIS, VIYSDGKRTFYGDRVK, GRMAGTFDP gave nd, nd, nd, nd, nd, nd.
Variant GFDLNEYGIS, VIYADGSRTVYADSVK, GNVAGTFDT gave -0.52, -0.44, -0.84, -0.72, -0.78, -0.51 (mean -0.64).
Variant GFDLNTYGIS, VIYSDGRRTMYGDSVK, GRQAGTFDS gave -0.20, -0.15, -0.08, -0.10, 0.21, 0.52 (mean 0.03).
Variant GFDLNEYGIS, VIYADGSRSYYVDNVK, GVMNIMMEV gave nd, nd, nd, nd, nd, nd.
Variant GFDLNSYGIS, VIYSDGRRTFYTDSVK, GRSAGTFDS gave 0.55, 0.64, 0.95, 0.26, 0.54, 0.77 (mean 0.62).
Variant GFTLNEYGIS, VIYSDGRRTFYADSVK, GRWAGTFDS gave 0.29, -0.01, 0.26, -0.14, 0.63, 0.09 (mean 0.19).
Variant GFTLNSYGIS, VIYSDGCRTFYGDAVK, GRAAGTFDS gave nd, nd, nd, nd, nd, nd.
Variant GFDLNEYGIS, VIYADGVRTYYADDVK, GENAGTFDI gave -0.08, -0.23, -0.81, -0.83, -0.79, -0.49 (mean -0.54).
Variant GADLNEYGIS, VIYADGSRVEYENSFK, GDVAGTFDS gave 2.70, nd, 2.29, 2.79, 1.87, 2.23 (mean 2.38).
Variant HFSLNSYGIS, VIYSDGRRTFYIDSVK, GNAAGTFDS gave nd, 1.26, 2.30, 1.99, 2.81, nd (mean 2.09).
Variant GFNLNSYGIS, VIYSDGRRTFYADSVK, GQAAGTFDL gave -0.08, 0.24, -0.18, 0.14, 0.06, 0.15 (mean 0.06).
Variant GFDLNEYGIS, VIYADGRRTFYSDSVK, GNVAGTFDL gave -0.43, -1.10, -0.60, -0.52, -0.39, -0.08 (mean -0.52).
Variant GFDLNSYGIS, VIYSDGRRTFYGDSVK, GKTAGTFDT gave -0.45, 0.52, -0.21, -0.67, -0.25, -0.09 (mean -0.19).

Continued, with the values leading:

-0.13, 0.29, -0.21, -0.04, -0.48, 0.07 (mean -0.08) for GFTLNSYGIS, VIYSDGRRTFYADSVK, GQTAGTFDT.
-0.42, -0.75, -0.71, -0.96, -0.77, -0.53 (mean -0.69) for GFNLNEYGIS, VIYADGRRTAYADSVK, GEIAGTFDF.
nd, 2.38, nd, 1.31, nd, nd (mean 1.84) for GFTLNSYGVS, VIYSDGRRTFYGDSVK, GRASGTFDY.
-0.18, 0.36, -0.46, -0.72, -0.74, -0.08 (mean -0.30) for GFDLNEYGIS, VIYADGQRTAYADSVK, GGNAGTFDL.
0.30, -0.23, 0.46, 0.24, 0.01, 1.26 (mean 0.34) for GFSLNSYGIS, VIYSDGRRTFYGDSVK, GRTAGTFDF.
nd, 1.87, 0.94, nd, 1.68, 1.88 (mean 1.59) for GFTLNSYGIS, VIYSDGKRTFYGDSVK, GWVAGTFDF.
nd, nd, nd, nd, nd, nd for GFSLDEFGIS, VIYADGMRSAYSHNVK, GQHGGFTVS.
nd, nd, nd, nd, nd, 1.50 for GFSLNEYGIS, VIYSDGRRTFYCDSVK, GFAAGTFDR.
-0.37, -0.34, -0.22, -0.67, -0.45, -0.48 (mean -0.42) for GFDLNEYGIS, VIYADGKRKAYADDVK, GNQAGTFDV.
0.66, -0.09, 0.39, -0.21, -0.38, 0.13 (mean 0.08) for GFDLNEYGIS, VIYADGQRTFYADSVK, GNVAGTFDK.
1.29, 1.83, 0.87, nd, nd, 1.30 (mean 1.32) for GFTLNSQGIS, VIYSDGRRTFYIDSVK, GQAAGTFDS.
nd, nd, nd, nd, nd, nd for GFDLNSYGIS, VIYSDGRRTFYGDSVK, GRAAGFFRS.
2.23, nd, nd, 2.22, nd, nd (mean 2.23) for GFTLNEYGIS, VIYSDGRRAFYGDSVK, GRAAVTFDQ.
-0.53, -0.54, -0.92, -0.85, -0.93, -0.75 (mean -0.75) for GFDLNEYGIS, VIYADGVRKAYADSVK, GEVAGTFDL.
0.44, -0.03, 0.28, 0.25, 0.10, 0.19 (mean 0.21) for GFDLNSYGIS, VIYSDGRRTFYGDSVK, GHAAGTFDV.
nd, nd, nd, nd, nd, nd for GFTLNQYGIS, VIYSDGRRTFYSDSVK, GRAAGIFDS.
0.16, -0.07, -0.10, 0.30, -0.19, 0.23 (mean 0.05) for GFDLNDYGIS, VIYADGRRTFYADSVK, GEAAGTFDV.

The closing 3 entries, repeated:

{"CDR-H1": "GFDLNSYGIS", "CDR-H2": "VIYSDGRRTFYGDSVK", "CDR-H3": "GHAAGTFDV", "log10 Kd (nM) by replicate": "0.44, -0.03, 0.28, 0.25, 0.10, 0.19", "mean log10 Kd (nM)": "0.21"}
{"CDR-H1": "GFTLNQYGIS", "CDR-H2": "VIYSDGRRTFYSDSVK", "CDR-H3": "GRAAGIFDS", "log10 Kd (nM) by replicate": "nd, nd, nd, nd, nd, nd", "mean log10 Kd (nM)": "nd"}
{"CDR-H1": "GFDLNDYGIS", "CDR-H2": "VIYADGRRTFYADSVK", "CDR-H3": "GEAAGTFDV", "log10 Kd (nM) by replicate": "0.16, -0.07, -0.10, 0.30, -0.19, 0.23", "mean log10 Kd (nM)": "0.05"}

Source: Li et al. 2023 (doi:10.1038/s41467-023-39022-2), MIT Lincoln Laboratory and A-Alpha Bio; data file from the FLAb repository.